The values that follow come from patent US20080160099A1, “Methods For Treating or Preventing a Vascular Disease” (THE TRUSTEES OF COLUMBIA UNIVERSITY IN THE CITY OF NEW YORK, priority 2004, published 2008).

The assay deals with T1, MMP-2 (Homo sapiens, UniProt P08253).
T1 construct: endogenous in cells; host or cells: fibroblasts cultured from AAA (abdominal aortic aneurysm) specimens
T1 sequence (P08253 110-660): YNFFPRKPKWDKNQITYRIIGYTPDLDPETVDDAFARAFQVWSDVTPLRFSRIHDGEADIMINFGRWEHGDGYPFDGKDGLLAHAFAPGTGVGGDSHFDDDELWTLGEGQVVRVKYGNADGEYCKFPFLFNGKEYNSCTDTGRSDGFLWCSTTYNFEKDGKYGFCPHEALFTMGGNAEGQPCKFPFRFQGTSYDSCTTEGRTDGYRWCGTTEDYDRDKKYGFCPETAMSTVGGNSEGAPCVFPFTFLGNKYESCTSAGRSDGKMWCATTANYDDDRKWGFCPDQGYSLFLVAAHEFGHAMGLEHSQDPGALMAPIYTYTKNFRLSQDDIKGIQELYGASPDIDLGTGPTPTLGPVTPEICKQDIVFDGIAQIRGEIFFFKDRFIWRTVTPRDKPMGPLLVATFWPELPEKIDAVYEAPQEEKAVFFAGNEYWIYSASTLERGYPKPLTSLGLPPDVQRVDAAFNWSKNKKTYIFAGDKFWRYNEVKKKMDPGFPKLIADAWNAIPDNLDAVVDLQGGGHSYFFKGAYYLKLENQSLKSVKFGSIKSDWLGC
The experiment in a line: MMP-2 activity in lysates of fibroblasts cultured from AAA specimens, gelatin zymography with densitometry. In kind it is biochemical. Also on record: key to MMP-2 Inhibitory Activity: +++ indicates a very high degree of MMP-2 inhibition relative to the other compounds tested; ++ indicates a moderate degree of MMP-2 inhibition relative to the other compounds tested; + indicates a minor degree of MMP-2 inhibition relative to the other compounds tested; − indicates that the tested compound did not inhibit MMP-2. Here is the method: Properties of different test compounds against MMP-2 activity of aneurysmal fibroblast origin were examined on 10% polyacrylamide gels containing 1.0 mg/mL of gelatin. Fibroblasts cultured from AAA specimens were lysed using the CellLytic-M lysis/extraction reagent. The protein concentration of each supernatant was determined using the Bradford method using bovine serum albumin as a standard. The aortic fibroblast lysates were incubated alone (control) or with an illustrative Compound or Extract of the Invention at various concentrations for 1 hour on ice. After test compound incubation, equivalent amounts of proteins (30 μg) were mixed with an equal volume of sample buffer (2% SDS, 125 mM Tris-HCL, pH 6.8, 10% glycerol and 0.001% bromophenol blue) and the resulting mixture was subjected to electrophoresis in Trir-glycine el. buffer (25 mMTris pH 8.3, 250 mM Glycine, 0.1% SDS) under denatured but non-reduced conditions. After completion of electrophoresis, the gels were incubated in 2% Triton X-100 for 30 min at room temperature to ensure complete removal of SDS. […] Enzyme activity was detected as unstained bands on a blue background. Quantity One (Bio-Rad Version 4.3.1) was used as a densitometer to quantitate test compound inhibitory ability.

With (−)-epigallocatechin gallate, the “MMP-2 inhibitory ability (in words)” value (aneurysmal fibroblast MMP-2) is on record as “inhibit aneurysmal fibroblast MMP-2 activity”. For the same substance, the “MMP-2 Inhibitory Activity” value (relative, aneurysmal fibroblast lysates, 1 hour incubation on ice) is recorded as “+++”.
